Consider one compound from patent US6262116A, “Transcription therapy for cancers” (Sloan-Kettering Institute for Cancer Research, priority 1998, dated 2001).

Entries after “also recorded” stand apart in the source; their conditions may differ.

The assay has as its system acute promyelocytic leukemia. The assay is described as follows: Clinical study in a patient with acute promyelocytic leukemia. Conditions: first 11 days, all-trans retinoic acid alone, 45 mg/m^2/day oral. It counts as in vivo, human.

Take `CC1=C(/C=C/C(C)=C/C=C/C(C)=C/C(=O)O)C(C)(C)CCC1` [retinoic acid, all-trans-retinoic acid]: the platelet count entry is “fell progressively; also recorded: progressive decline in platelet count”.
